scFv variants of Ab-14 (heavy chain) against a SARS-CoV-2 spike peptide

Target peptide (SARS-CoV-2 spike, HR2 region): PDVDLGDISGINAS

Parent: Ab-14, a human scFv built as VH, the linker GGGGSGGGGSGGGGS, VL. Only the CDRs of the heavy chain vary.
VH: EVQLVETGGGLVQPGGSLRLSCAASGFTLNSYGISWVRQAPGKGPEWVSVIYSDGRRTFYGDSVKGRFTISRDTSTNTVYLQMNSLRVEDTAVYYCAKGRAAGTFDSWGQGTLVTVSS
VL: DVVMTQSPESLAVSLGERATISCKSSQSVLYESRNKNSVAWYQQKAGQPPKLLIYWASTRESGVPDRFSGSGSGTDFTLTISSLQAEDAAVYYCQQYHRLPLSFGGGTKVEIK

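Phage display of a naive human antibody library on the peptide gave the parent. These sequences belong to a second round, designed from the earlier measurements on random variants of the parent. Several design methods are mixed in this list. In AlphaSeq, yeast of one mating type display the scFv and yeast of the other type display the target. Mating (16 h, 30 °C) was followed by selection of diploids and sequencing of their barcodes. Each replicate has its own calibration line, from reference interactions of the BCL2 family. The assay was run in six technical replicates.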

The parent's heavy chain CDRs are GFTLNSYGIS, VIYSDGRRTFYGDSVK, GRAAGTFDS; each variant's own CDRs replace them letter for letter.
Variants here have more than six changes.
Kd is apparent (estimated from mating counts) and averaged on the log scale over replicates with a signal. Smaller is tighter.
An entry "not detected" has no value in the source: the pair was not observed among the diploids in any replicate. This suggests poor binding but is not conclusive.
Three control strains display no target. For all heavy chain designs, 1% of the pairings with them gave a signal, with a median of 120 nM and one signal in twenty below 7.0 nM, so weak values seen in few replicates may be background. Also given: how often the same scFv was detected with the empty control strains.

CDR-H1	CDR-H2	CDR-H3	apparent Kd	detected	control signals
KFDLEAYGIS	VIYADGVRTGYVDKVK	GDTGGMFDM	not detected	0/6	0/18
GFDLNEYGIS	VIYADGQRTAYSDSVK	GENAGTFDL	870 pM	6/6	0/18
GFDLDEYGIS	VIYADGMRTAYTDSVK	GEAAGTFDA	980 pM	6/6	1/18
GFDLNEYGIS	VIYADGRRTFYADSVK	GQLAGTFDV	120 pM	6/6	0/18
GNSLNSFGIS	VIYSDGRRTFIADSVK	GPAAGDFDS	not detected	0/6	0/18
GFDLNEYGIS	VIYADGRRTFYKDSVK	GENGGTFDV	630 pM	6/6	0/18
GFNLNEYGIS	VIYADGMRNFYADSVK	GLHKGFFDI	not detected	0/6	0/18
GFTLGEYGIS	VIYADGERTMYSNAVK	GNMAGTFDF	1.8 nM	6/6	0/18
GFDLEEYGIS	VIYADGQRFAYAQEFK	GEAGGAFDL	not detected	0/6	0/18
GFDLNEYGIS	VIYADGQRTFYADSVK	GENAGTFDL	450 pM	6/6	0/18
GFDLNEYGIS	VIYADGRRTFYADSVK	GKNAGTFNV	150 pM	6/6	0/18
GFDLNEYGIS	VIYADGMRTAYADSVK	GNIAGTFDT	650 pM	6/6	0/18
GFEIDEYGIS	VIYADGIRSSYNDNVK	GQTGGAFDL	not detected	0/6	0/18
GFDLNEYGIS	VIYADGRRTAYIDSVK	GENAGTFDS	510 pM	6/6	1/18
GFDLNEYGIS	VIYADGMRKAYSDSVK	GEVAGTFDV	280 pM	6/6	0/18
GFQLDEYGIS	VIYADGLRQEYAQKVK	GYNSFDLND	not detected	0/6	0/18
GFDLNEYGIS	VIYADGRRTFYADSVK	GHVAGTFVS	1.4 nM	6/6	1/18
GFDLNEYGIS	VIYADGSRTAYSDSVK	GNQAGTFDI	640 pM	6/6	0/18
GFDLNEYGIS	VIYADGVRTSYADDVK	GNNAGTFDV	73 pM	6/6	0/18
GFEIEEYGIS	VIYADGQRSSYVDDVK	GKVDTVVMY	not detected	0/6	0/18
GFDLNEYGIS	VIYADGKRSAYADSVK	GNVAGTFDQ	1.1 nM	6/6	0/18
GFDLNEYGIS	VIYADGVRTAYIDSVK	GNQAGTFDV	not detected	0/6	0/18
GFDLREYGIS	VIYADGRRVVYQDKVK	GELTGTFDQ	18 nM	6/6	1/18
GFDLDEYGIS	VIYADGMRTAYSDNVK	GEVAGTFDL	660 pM	6/6	0/18
GFDLNEYGIS	VIYADGQRTFYTDSVK	GQLAGTFDS	600 pM	6/6	1/18
GFDLNEYGIS	VIYADGMRTAYSDSVK	GANAGTFDL	220 pM	6/6	0/18
GFDLNEYGIS	VIYADGKRQAYADSVK	GNVAGTFDI	670 pM	6/6	0/18
GFDLDEYGIS	VIYADGVRTAYADSVK	GNTAGTFDQ	1.1 nM	6/6	0/18
GFNLDEYGIS	VIYADGKRTAYADSVK	GQVAGTFDV	290 pM	6/6	1/18
GFDLNEYGIS	VIYADGMRTAYADSVK	GNIAGTFDI	430 pM	6/6	0/18
GFDLDEYGIS	VIYADGMRTAYADSVK	GNVAGTFDL	5.7 nM	6/6	0/18
GFDLNEYGIS	VIYADGKRVAYADSVK	GNVAGTFDV	1.5 nM	4/6	0/18
GFTLDEYGIS	VIYADGMRTFYADSVK	GEAAGTFDI	1.3 nM	6/6	0/18
GFTIDEYGIS	VIYADGQRVAYDEKFK	GMLVGTFDQ	170 nM	3/6	0/18
GFDLNEYGIS	VIYADGRRSFYADSVK	GQLAGTFDA	210 pM	6/6	0/18
GFNLNEYGIS	VIYADGRRTAYADSVK	GQVAGTFDV	340 pM	6/6	0/18
GFDLNEYGIS	VIYADGRRTAYADSVK	GANAGTFDM	860 pM	6/6	0/18
GFNLNEYGIS	VIYADGKRKFYADSVK	GNTAGTFDV	250 pM	6/6	2/18
GFDLNEYGIS	VIYADGKRTFYADSVK	GNVAGTFDV	750 pM	6/6	0/18
GFDLNEYGIS	VIYADGRRTAYKDSVK	GTDAGTFDQ	3.0 nM	6/6	1/18
GFDLNEYGVS	VIYADGVRSAYTSSVK	GVGNLDIML	not detected	0/6	0/18
GFDLNEYGIS	VIYADGMRTAYTDSVK	GNTAGTFDV	450 pM	6/6	0/18
GDNLDEYGIS	VIYADGQRTAYDDPVK	GGQTVTVMV	not detected	0/6	0/18
GFDLNEYGIS	VIYADGCRVSYAQNVK	GLLGKLKVV	not detected	0/6	0/18
GFSIDEYGIS	VIYADGMRARYSDAVK	GVKVGNVIM	80 nM	1/6	0/18
GFDLQEYGIS	VIYADGSRVVYQEKVK	GFSAGNFDT	not detected	0/6	0/18
GFDLNEYGIS	VIYADGRRTQYIDSVK	GNEAGTFDY	290 pM	6/6	0/18
GFDLNEYGIS	VIYADGVRTFYSDSVK	GEAAGTFDQ	240 pM	6/6	0/18
GFDLDEYGIS	VIYADGMRTAYADDVK	GSNAGTFDI	5.2 nM	6/6	0/18
GFELDEYGIS	VIYADGVRTQYKQSFK	GGSFGYIAG	not detected	0/6	0/18
GFDLDEYGIS	VIYADGKRTAYVDSVK	GEVAGTFDL	840 pM	6/6	1/18
GFDLNEYGIS	VIYADGVRQAYADSVK	GNNAGTFDV	2.6 nM	6/6	0/18
GYDLTEYGIS	VIYADGRRTAYSQSVK	GLNGGIIVV	not detected	0/6	0/18
GFDLNEYGIS	VIYADGRRTFYSDSVK	GNFGGTFDI	980 pM	6/6	0/18
GFDLNEYGIS	VIYADGVRTAYADDVK	GNQAGTFDI	300 pM	6/6	1/18
GFDLDEYGIS	VIYADGRRTFYKDSVK	GSNAGTFDI	3.4 nM	5/6	0/18
GFDLNEYGIS	VIYADGMRKAYADSVK	GEVAGTFDQ	96 pM	6/6	1/18
GFDLNEYGIS	VIYADGRRTAYIDSVK	GEAAGTFDM	600 pM	6/6	0/18
GFQLDEYGIS	VIYADGKRTFYQDSVK	GEVAGTFDV	200 pM	6/6	2/18
GFDLDEYGIS	VIYADGVRTYYADSVK	GENAGTFDV	570 pM	6/6	0/18
GFDLNEYGIS	VIYADGRRTAYADDVK	GGNAGTFDV	260 pM	6/6	0/18
GFDLNEYGIS	VIYADGRRTAYADDVK	GNVAGTFDM	540 pM	6/6	0/18
GFDLNEYGIS	VIYADGMRTAYADNVK	GGNAGTFDV	370 pM	6/6	0/18
GFDLEEYGIS	VIYADGLRQYAIDNVK	GEISGKGGT	not detected	0/6	0/18
GFDLNEYGIS	VIYADGKRTVYADSVK	GNVAGTFDM	150 pM	6/6	0/18
GFDLNEYGIS	VIYADGVRTFYSDSVK	GTVAGTFDS	380 pM	6/6	0/18

Again, the first 5 entries without any signal:

CDR-H1	CDR-H2	CDR-H3	apparent Kd	detected	control signals
KFDLEAYGIS	VIYADGVRTGYVDKVK	GDTGGMFDM	not detected	0/6	0/18
GNSLNSFGIS	VIYSDGRRTFIADSVK	GPAAGDFDS	not detected	0/6	0/18
GFNLNEYGIS	VIYADGMRNFYADSVK	GLHKGFFDI	not detected	0/6	0/18
GFDLEEYGIS	VIYADGQRFAYAQEFK	GEAGGAFDL	not detected	0/6	0/18
GFEIDEYGIS	VIYADGIRSSYNDNVK	GQTGGAFDL	not detected	0/6	0/18

Of ten entries with the parent sequence, four were seen in most replicates (averages 2.2 nM to 240 nM), three in one and three in none, so single entries are noisy.
Values of this round are not directly comparable with the first-round values of the same sequences.
In the paper, a design with two or fewer of six values counts as a poor binder.

Data: MIT Lincoln Laboratory AlphaSeq set, Li et al. 2023, doi:10.1038/s41467-023-39022-2, as distributed in FLAb.